In patent publication US20150050663A1, “Optimal Gonadotropin Dosage” (Oslo Universitetssykehus HF, priority 2012, published 2015):

Assays:
[1] = tested on: peripheral blood monocytes; test: uptake of fluorochrome-conjugated gonadotropins by blood-derived leukocytes (FACS); assay type: cell-based, human; conditions: FACS with cell lineage markers
Method: Blood-derived monocytes are enriched by density gradient centrifugation. Cells are split in two and incubated for 2 hours in the presence of FITC-conjugated FSH, at 37° C. or on ice. Cells are labelled with fluorochrome-conjugated monocyte marker (e.g. anti-CD14-PerCP antibody, as described above) and analyzed with multi-colour flow cytometry (FACS).
Internalization of FSH is estimated as mean fluorescence intensity (MFI) of the cell population expressing monocyte markers. Unspecific binding (background) is estimated as MFI for cells incubated on ice
We incubated blood-derived leukocytes with fluorochrome conjugates of human recombinant and urine-derived gonadotropins (FSH, LH, and hCG). Cells were analyzed with flow cytometry (FACS) with simultaneous detection of multiple cell lineage markers.

[2] = tested on: monocytes and ovarian granulosa cells; test: co-culture of monocytes and ovarian granulosa cells with fluorochrome-conjugated hCG; assay type: cell-based; conditions: monocytes co-cultured with ovarian granulosa cells, FIG. 1D
Text: Internalized gonadotropins co-localized with internalized dextran, indicating lysosomatic targeting (FIG. 1C). In order to assess the effect of gonadotropin internalization in vitro, monocytes and ovarian granulosa cells were co-cultured in the presence of fluorochrome-conjugated hCG.

Substance | binding of fluorochrome-conjugated gonadotropin to leukocytes [1] | sequestration of labelled hCG in co-culture [2]
chorionic gonadotropin [hCG] | bound to a sub-population of leukocytes bearing monocyte markers | removed from granulosa cells and accumulated by differentially labelled monocytes
follicle-stimulating hormone [FSH] | bound to a sub-population of leukocytes bearing monocyte markers | –
luteinizing hormone [LH] | bound to a sub-population of leukocytes bearing monocyte markers | –
